# “And” between values parts separate entries of the source, which are not always exact repeats. Equal values may be shown once.
# Chains of the proteins cited; added tags and fusions are not shown. Lines headed by an entry give the natural chain unless they say otherwise; changes in a name come on top.
# UniProt Q06187: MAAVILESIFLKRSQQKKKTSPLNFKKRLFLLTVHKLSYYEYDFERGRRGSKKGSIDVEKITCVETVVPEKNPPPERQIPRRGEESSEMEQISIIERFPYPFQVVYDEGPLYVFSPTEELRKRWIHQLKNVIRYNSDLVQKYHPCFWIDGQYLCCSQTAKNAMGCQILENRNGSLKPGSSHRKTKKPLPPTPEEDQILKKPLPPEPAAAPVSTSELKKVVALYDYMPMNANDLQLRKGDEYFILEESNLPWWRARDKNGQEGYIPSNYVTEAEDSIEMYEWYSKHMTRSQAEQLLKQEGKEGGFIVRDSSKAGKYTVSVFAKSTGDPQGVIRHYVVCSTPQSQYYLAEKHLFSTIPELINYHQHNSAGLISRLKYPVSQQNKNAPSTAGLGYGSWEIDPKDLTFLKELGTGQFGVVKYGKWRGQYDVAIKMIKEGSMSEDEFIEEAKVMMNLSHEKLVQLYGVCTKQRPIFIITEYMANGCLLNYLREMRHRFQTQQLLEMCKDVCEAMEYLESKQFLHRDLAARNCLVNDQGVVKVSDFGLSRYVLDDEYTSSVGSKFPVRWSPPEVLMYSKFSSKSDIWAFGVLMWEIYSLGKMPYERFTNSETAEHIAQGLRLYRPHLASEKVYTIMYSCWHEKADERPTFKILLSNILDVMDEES
# Molecular target: Tyrosine-protein kinase BTK (Homo sapiens, UniProt Q06187)
# Experiment: […] After incubating at room temperature for 60 min, the reaction was terminated by adding 45 μL of 35 mM EDTA to each sample. The reaction mixture was analyzed on the Caliper LABCHIP® 3000 (Caliper, Hopkinton, Mass.) by electrophoretic separation of the fluorescent substrate and phosphorylated product.
# Details: pH 7.4; 25 °C
smiles,measurement,value
"Cc1c(-c2c(Cl)cc(C(N)=O)c3[nH]c4cc(C(C)(C)O)ccc4c23)cccc1-n1c(=O)c2cccc(F)c2n(C)c1=O (single isomer, unassigned) [US9334290, 2]",IC50,2.1 nM and 1.1 nM

# — BindingDB's records for patent US9334290 (Bristol Myers Squibb, 2016)
